Legend:
[1] = target: melanocortin 1 receptor (MC1R) (Homo sapiens, UniProt Q01726); assay: cAMP accumulation assay (HTRF), agonist and/or antagonist activity at MC1R (Example 1, Table 11); conditions: dose-response; for EC50: cAMP
[2] = target: melanocortin 5 receptor (MC5R) (Homo sapiens, UniProt P33032); assay: cAMP accumulation assay (HTRF), agonist and/or antagonist activity at MC5R (Example 1, Table 14); conditions: dose-response against MC5R
[3] = target: human melanocortin 3 receptor (MC3R) (Homo sapiens, UniProt P41968); assay: cAMP accumulation assay (HTRF), antagonist and/or agonist activity at MC3R (Example 1, Table 12, FIGS. 1-4); conditions: MC3R, antagonist activity, dose-response, cAMP

Chains of the proteins cited; added tags and fusions are not shown.
UniProt Q01726, whole entry: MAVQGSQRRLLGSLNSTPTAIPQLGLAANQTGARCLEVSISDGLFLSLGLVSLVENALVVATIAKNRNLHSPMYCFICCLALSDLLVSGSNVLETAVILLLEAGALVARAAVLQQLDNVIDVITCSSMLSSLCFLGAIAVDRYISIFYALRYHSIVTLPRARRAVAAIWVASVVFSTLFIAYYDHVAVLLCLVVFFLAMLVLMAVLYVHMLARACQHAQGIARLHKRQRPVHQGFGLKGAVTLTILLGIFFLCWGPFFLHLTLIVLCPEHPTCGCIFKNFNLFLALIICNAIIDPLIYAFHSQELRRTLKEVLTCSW
UniProt P33032, whole entry: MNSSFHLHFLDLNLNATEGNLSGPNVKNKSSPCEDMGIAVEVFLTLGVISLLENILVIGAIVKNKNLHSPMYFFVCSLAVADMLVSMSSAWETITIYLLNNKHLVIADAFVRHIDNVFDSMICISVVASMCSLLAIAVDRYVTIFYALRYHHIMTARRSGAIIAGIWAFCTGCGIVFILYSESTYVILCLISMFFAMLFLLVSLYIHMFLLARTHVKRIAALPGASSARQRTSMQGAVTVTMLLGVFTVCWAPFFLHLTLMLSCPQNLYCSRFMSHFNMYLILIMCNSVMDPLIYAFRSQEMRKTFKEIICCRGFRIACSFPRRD
UniProt P41968, whole entry: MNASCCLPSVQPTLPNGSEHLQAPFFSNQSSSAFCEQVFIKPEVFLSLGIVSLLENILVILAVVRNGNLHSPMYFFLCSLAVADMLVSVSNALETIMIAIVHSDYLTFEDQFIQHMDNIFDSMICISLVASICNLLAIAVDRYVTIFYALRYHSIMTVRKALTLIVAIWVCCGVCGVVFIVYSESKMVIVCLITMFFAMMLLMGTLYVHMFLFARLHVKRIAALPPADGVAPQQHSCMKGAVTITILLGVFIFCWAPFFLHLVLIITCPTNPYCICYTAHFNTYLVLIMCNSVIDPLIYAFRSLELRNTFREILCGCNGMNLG

Compound: CC(=O)N[C@H](Cc1ccc(O)cc1)C(=O)N[C@H]1CC(=O)NCCCC[C@@H](C(=O)N[C@@H](C(=O)N2CCC[C@@H]2C(N)=O)C(C)C)NC(=O)[C@H](Cc2c[nH]c3ccccc23)NC(=O)[C@H](CCCNC(=N)N)NC(=O)[C@@H](Cc2ccc3ccccc3c2)NC(=O)[C@@H]2CCCN2C1=O
- EC50 [1]: > 1000 nM
- EC50 [2]: 16 nM

Compound: CCCC[C@H](NC(C)=O)C(=O)N[C@H]1CC(=O)NCCCC[C@@H](C(=O)N[C@@H](C(=O)N2CCC[C@@H]2C(N)=O)C(C)C)NC(=O)[C@H](Cc2c[nH]c3ccccc23)NC(=O)[C@H](CCCNC(=N)N)NC(=O)[C@@H](Cc2ccc3ccccc3c2)NC(=O)CNC(=O)CNC1=O
- EC50 [1]: > 1000 nM
- EC50 [2]: > 1000 nM
- IC50 [3]: > 1000 nM

Compound: CCCC[C@H](NC(C)=O)C(=O)N[C@H]1CC(=O)NCCCC[C@@H](C(=O)N[C@@H](CCCCN)C(=O)N2CCC[C@@H]2C(=O)N[C@@H](C(N)=O)C(C)C)NC(=O)[C@H](Cc2c[nH]c3ccccc23)NC(=O)[C@H](CCCNC(=N)N)NC(=O)[C@@H](Cc2ccc3ccccc3c2)NC(=O)[C@@H]2CCCN2C1=O
- EC50 [1]: 1.3 nM
- EC50 [2]: 0.07 nM

Compound: CCCC[C@H](NC(C)=O)C(=O)N[C@H]1CC(=O)NCCCC[C@@H](C(=O)N[C@@H](C(=O)N2CCC[C@@H]2C(=O)O)C(C)C)NC(=O)[C@H](Cc2c[nH]c3ccccc23)NC(=O)[C@H](CCCNC(=N)N)NC(=O)[C@@H](Cc2ccc3ccccc3c2)NC(=O)[C@@H]2CCCN2C1=O
- EC50 [1]: 32 nM
- EC50 [2]: 0.12 nM

Compound: CC(=O)N[C@H](C)C(=O)N[C@H]1CC(=O)NCCCC[C@@H](C(=O)N[C@@H](C(=O)N2CCC[C@@H]2C(N)=O)C(C)C)NC(=O)[C@H](Cc2c[nH]c3ccccc23)NC(=O)[C@H](CCCNC(=N)N)NC(=O)[C@@H](Cc2ccc3ccccc3c2)NC(=O)[C@@H]2CCCN2C1=O
- EC50 [1]: > 1000 nM
- EC50 [2]: 29 nM

Compound: CC(=O)N[C@H](C(=O)N[C@H]1CC(=O)NCCCC[C@@H](C(=O)N[C@@H](C(=O)N2CCC[C@@H]2C(N)=O)C(C)C)NC(=O)[C@H](Cc2c[nH]c3ccccc23)NC(=O)[C@H](CCCNC(=N)N)NC(=O)[C@@H](Cc2ccc3ccccc3c2)NC(=O)[C@@H]2CCCN2C1=O)C(C)(C)C
- EC50 [1]: 12 nM
- EC50 [2]: 11 nM

Compound: CCCC[C@H](NC(C)=O)C(=O)N[C@H]1CSSC[C@@H](C(=O)N[C@@H](C(=O)N2CCC[C@@H]2C(N)=O)C(C)C)NC(=O)[C@H](Cc2c[nH]c3ccccc23)NC(=O)[C@H](CCCNC(=N)N)NC(=O)[C@@H](Cc2ccc3ccccc3c2)NC(=O)[C@@H]2CCCN2C1=O
- EC50 [1]: 13 nM
- EC50 [2]: 1.9 nM

Compound: CC(=O)N[C@@H](C(=O)N[C@H]1CC(=O)NCCCC[C@@H](C(=O)N[C@@H](C(=O)N2CCC[C@@H]2C(N)=O)C(C)C)NC(=O)[C@H](Cc2c[nH]c3ccccc23)NC(=O)[C@H](CCCNC(=N)N)NC(=O)[C@@H](Cc2ccc3ccccc3c2)NC(=O)[C@@H]2CCCN2C1=O)C(C)(C)C
- EC50 [1]: > 1000 nM
- EC50 [2]: 3.9 nM

Compound: CCCC[C@H](NC(C)=O)C(=O)N[C@H]1CC(=O)NCCCC[C@@H](C(=O)N[C@@H](C(=O)N2CCC[C@@H]2C(N)=O)C(C)C)NC(=O)[C@H](Cc2ccccc2)NC(=O)[C@H](CCCNC(=N)N)NC(=O)[C@@H](Cc2ccc3ccccc3c2)NC(=O)[C@@H]2CCCN2C1=O
- EC50 [1]: 16 nM
- EC50 [2]: 8.8 nM
- IC50 [3]: 2.5 nM

Compound: CCCC[C@H](NC(C)=O)C(=O)N[C@H]1CCC(=O)NCCC[C@H](C(=O)N[C@@H](C(=O)N2CCC[C@@H]2C(N)=O)C(C)C)NC(=O)[C@H](Cc2c[nH]c3ccccc23)NC(=O)[C@H](CCCNC(=N)N)NC(=O)[C@@H](Cc2ccc3ccccc3c2)NC(=O)[C@@H]2CCCN2C1=O
- EC50 [1]: 510 nM
- EC50 [2]: 11 nM

Compound: CCCC[C@H](NC(C)=O)C(=O)N[C@@H]1C(=O)N2CCC[C@H]2C(=O)N[C@H](Cc2ccc3ccccc3c2)C(=O)N[C@@H](CCCNC(=N)N)C(=O)N[C@@H](Cc2c[nH]c3ccccc23)C(=O)N[C@@H](C(=O)N[C@@H](C(=O)N2CCC[C@@H]2C(N)=O)C(C)C)CSSC1(C)C
- EC50 [1]: > 1000 nM
- EC50 [2]: 47 nM
- IC50 [3]: > 1000 nM

Compound: CCCC[C@H](NC(C)=O)C(=O)N[C@H]1CC(=O)NCCCC[C@@H](C(=O)N[C@@H](C(=O)N2CCC[C@@H]2C(N)=O)C(C)C)NC(=O)[C@H](Cc2ccc(O)cc2)NC(=O)[C@H](CCCNC(=N)N)NC(=O)[C@@H](Cc2ccc3ccccc3c2)NC(=O)[C@@H]2CCCN2C1=O
- EC50 [1]: 780 nM
- EC50 [2]: 590 nM

Compound: CCCC[C@H](NC(C)=O)C(=O)N[C@H]1CCC(=O)NCCC[C@@H](C(=O)N[C@@H](C(=O)N2CCC[C@@H]2C(N)=O)C(C)C)NC(=O)[C@H](Cc2c[nH]c3ccccc23)NC(=O)[C@H](CCCNC(=N)N)NC(=O)[C@@H](Cc2ccc3ccccc3c2)NC(=O)[C@@H]2CCCN2C1=O
- EC50 [1]: 3.3 nM
- EC50 [2]: 0.11 nM

Compound: CC(=O)N[C@@H](C)C(=O)N[C@H]1CC(=O)NCCCC[C@@H](C(=O)N[C@@H](C(=O)N2CCC[C@@H]2C(N)=O)C(C)C)NC(=O)[C@H](Cc2c[nH]c3ccccc23)NC(=O)[C@H](CCCNC(=N)N)NC(=O)[C@@H](Cc2ccc3ccccc3c2)NC(=O)[C@@H]2CCCN2C1=O
- EC50 [1]: > 1000 nM
- EC50 [2]: 8.8 nM

Compound: CCCC[C@H](NC(C)=O)C(=O)N[C@H]1CC(=O)NCCCC[C@@H](C(=O)N2CCC[C@@H]2C(=O)N[C@@H](C(=O)N2CCC[C@@H]2C(N)=O)C(C)C)NC(=O)[C@H](Cc2c[nH]c3ccccc23)NC(=O)[C@H](CCCNC(=N)N)NC(=O)[C@@H](Cc2ccc3ccccc3c2)NC(=O)[C@@H]2CCCN2C1=O
- EC50 [1]: 130 nM
- EC50 [2]: 0.21 nM

Compound: CCCC[C@H](NC(C)=O)C(=O)N[C@@H](CCCC)C(=O)N[C@@H](CCCC)C(=O)N[C@H]1CC(=O)NCCCC[C@@H](C(=O)N[C@@H](C(=O)N2CCC[C@@H]2C(N)=O)C(C)C)NC(=O)[C@H](Cc2c[nH]c3ccccc23)NC(=O)[C@H](CCCNC(=N)N)NC(=O)[C@@H](Cc2ccc3ccccc3c2)NC(=O)[C@@H]2CCCN2C1=O
- EC50 [1]: 73 nM
- EC50 [2]: 0.14 nM

Compound: CCCC[C@H](NC(C)=O)C(=O)N[C@H]1CC(=O)NCCCC[C@@H](C(=O)N[C@@H](C(=O)N2CCC[C@@H]2C(N)=O)C(C)(C)C)NC(=O)[C@H](Cc2c[nH]c3ccccc23)NC(=O)[C@H](CCCNC(=N)N)NC(=O)[C@@H](Cc2ccc3ccccc3c2)NC(=O)[C@H](Cc2c[nH]cn2)NC(=O)[C@H](Cc2ccccc2)NC1=O
- Hill Coefficient [1]: 1.33
- Top [1]: 100.99%
- EC50 [1]: 1.43 nM
- EC50 [2]: 2.97 nM
- Hill Coefficient [2]: 1.13
- Top (%) ([2]; top of curve): 99.79%

Compound: CCCC[C@H](NC(C)=O)C(=O)N[C@H]1CC(=O)NCCCC[C@@H](C(=O)N[C@@H](C(=O)N2CCC[C@@H]2C(N)=O)C(C)C)NC(=O)[C@H](Cc2c[nH]c3ccccc23)NC(=O)[C@H](CCCCN)NC(=O)[C@@H](Cc2ccc3ccccc3c2)NC(=O)[C@@H]2CCCN2C1=O
- EC50 [1]: 140 nM
- EC50 [2]: 10 nM

Compound: CCCC[C@H](NC(C)=O)C(=O)N[C@@H]1C(=O)N2CCC[C@H]2C(=O)N[C@H](Cc2ccc3ccccc3c2)C(=O)N[C@@H](CCCNC(=N)N)C(=O)N[C@@H](Cc2c[nH]c3ccccc23)C(=O)N[C@H](C(=O)N[C@@H](C(=O)N2CCC[C@@H]2C(N)=O)C(C)C)C(C)(C)SSC1(C)C
- EC50 [1]: 33 nM
- EC50 [2]: 15 nM

Compound: CCCC[C@H](NC(C)=O)C(=O)N[C@@H]1CSSC[C@H](C(=O)N[C@@H](C(=O)N2CCC[C@@H]2C(N)=O)C(C)C)NC(=O)[C@H](Cc2c[nH]c3ccccc23)NC(=O)[C@H](CCCNC(=N)N)NC(=O)[C@@H](Cc2ccc3ccccc3c2)NC(=O)[C@@H]2CCCN2C1=O
- EC50 [1]: 4.1 nM
- EC50 [2]: 0.51 nM

Compound: CC(=O)N[C@H](CC(C)C)C(=O)N[C@H]1CC(=O)NCCCC[C@@H](C(=O)N[C@@H](C(=O)N2CCC[C@@H]2C(N)=O)C(C)C)NC(=O)[C@H](Cc2c[nH]c3ccccc23)NC(=O)[C@H](CCCNC(=N)N)NC(=O)[C@@H](Cc2ccc3ccccc3c2)NC(=O)[C@@H]2CCCN2C1=O
- EC50 [1]: 12 nM
- EC50 [2]: 0.51 nM

Compound: CCCC[C@H](NC(C)=O)C(=O)N[C@H]1CC(=O)NCCCC[C@@H](C(=O)N[C@@H](C(=O)N2CCC[C@@H]2C(N)=O)C(C)C)NC(=O)[C@H](Cc2c[nH]c3ccccc23)NC(=O)[C@H](Cc2c[nH]cn2)NC(=O)[C@@H](Cc2ccc3ccccc3c2)NC(=O)[C@@H]2CCCN2C1=O
- EC50 [1]: 430 nM
- EC50 [2]: 0.11 nM

Compound: CCCC[C@H](NC(C)=O)C(=O)N[C@H]1CSSC[C@H](C(=O)N[C@@H](C(=O)N2CCC[C@@H]2C(N)=O)C(C)C)NC(=O)[C@H](Cc2c[nH]c3ccccc23)NC(=O)[C@H](CCCNC(=N)N)NC(=O)[C@@H](Cc2ccc3ccccc3c2)NC(=O)[C@@H]2CCCN2C1=O
- EC50 [1]: 110 nM
- EC50 [2]: 26 nM

Compound: CCCC[C@H](NC(C)=O)C(=O)N[C@@H]1C(=O)N2CCC[C@H]2C(=O)N[C@H](Cc2ccc3ccccc3c2)C(=O)N[C@@H](CCCNC(=N)N)C(=O)N[C@@H](Cc2c[nH]c3ccccc23)C(=O)N[C@@H](C(=O)N[C@@H](C(=O)N2CCC[C@@H]2C(N)=O)C(C)C)C(C)(C)SSC1(C)C
- EC50 [1]: > 1000 nM
- EC50 [2]: > 1000 nM

Compound: CCCC[C@H](NC(C)=O)C(=O)N[C@H]1CC(=O)NCCCC[C@@H](C(=O)N[C@@H](C(=O)N[C@@H](CC(N)=O)C(N)=O)C(C)C)NC(=O)[C@H](Cc2c[nH]c3ccccc23)NC(=O)[C@H](CCCNC(=N)N)NC(=O)[C@@H](Cc2ccc3ccccc3c2)NC(=O)[C@@H]2CCCN2C1=O
- EC50 [1]: 10 nM
- EC50 [2]: 0.79 nM

Compound: CCCC[C@H](NC(C)=O)C(=O)N[C@H]1CC(=O)NCCCC[C@@H](C(=O)N[C@@H](C(=O)N2CCC[C@@H]2C(N)=O)C(C)C)NC(=O)[C@H](Cc2c[nH]c3ccccc23)NC(=O)[C@@H](Cc2ccc3ccccc3c2)NC(=O)[C@@H]2CCCN2C1=O
- EC50 [2]: > 1000 nM

— patent publication US20260382689A1, “METHODS OF PREVENTING AND/OR TREATING SIDE EFFECTS ASSOCIATED WITH ANTI-CANCER AGENTS USING NON-NATURALLY OCCURRING MELANOCORTIN ANALOGS WITH ANTI-GDF-15 ANTIBODIES” (published 2026)
